This note sets out measurements from paper PMC5297516 (mAbs, 2016).

The assay concerns the target HER2 extracellular domain (ECD) (Homo sapiens, UniProt P04626). Put plainly: SPR.

B1: anti-HER2 IgG1 variant VH Q39E CH1 S183K / VL Q38K CL V133E (antibody, V domains shown)
VH: [about 120 residues omitted here]
VL: DIQMTQSPSSLSASVGDRVTITCRASQDVNTAVAWYQKKPGKAPKLLIYSASFLESGVPSRFSGSRSGTDFTLTISSLQPEDFATYYCQQHYTTPPTFGQGTKVEIK
On to B1, for which binding was characterised by a dissociation constant (Kd) of 0.75 nM.

B2: anti-HER2 IgG1 variant VH Q39K CH1 S183E / VL Q38E CL V133K (antibody, V domains shown)
VH: [about 120 residues omitted here]
VL: DIQMTQSPSSLSASVGDRVTITCRASQDVNTAVAWYQEKPGKAPKLLIYSASFLESGVPSRFSGSRSGTDFTLTISSLQPEDFATYYCQQHYTTPPTFGQGTKVEIK
Molecule B2 showed a Kd of 0.46 nM.
